# Experimental data taken from PubChem BioAssay AID1025 (Sanford-Burnham Center for Chemical Genomics, 2008).
# By UniProt entry, the sequences of proteins in these tests, tags left out.
# UniProt P33261, whole entry, looked up: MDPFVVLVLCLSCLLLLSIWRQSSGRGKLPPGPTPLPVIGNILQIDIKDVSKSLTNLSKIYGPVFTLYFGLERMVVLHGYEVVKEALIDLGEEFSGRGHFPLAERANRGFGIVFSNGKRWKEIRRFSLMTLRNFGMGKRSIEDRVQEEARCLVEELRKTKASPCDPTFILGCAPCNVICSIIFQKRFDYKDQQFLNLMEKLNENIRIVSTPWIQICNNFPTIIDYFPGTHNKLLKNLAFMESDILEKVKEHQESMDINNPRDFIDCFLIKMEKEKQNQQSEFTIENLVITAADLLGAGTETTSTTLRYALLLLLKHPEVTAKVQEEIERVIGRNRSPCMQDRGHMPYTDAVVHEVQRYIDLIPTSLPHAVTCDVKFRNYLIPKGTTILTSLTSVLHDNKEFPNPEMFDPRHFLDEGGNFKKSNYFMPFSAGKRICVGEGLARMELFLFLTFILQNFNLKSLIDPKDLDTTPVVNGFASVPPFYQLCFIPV
# Some of the results follow. The source made the active and inactive calls.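 The calls were made as follows: active = activation factor of at least 2 at 5 µM in the primary screen; inactive = the rest.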
# Biological target: Cytochrome P450 2C19 (Homo sapiens) (UniProt P33261)
# Assay: enhancers of cytochrome P450 2C19 turnover – biochemical, luminescence, primary screen (AID 1025);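 also: 0 = wells with 2.5 mM tranylcypromine and 1 = vehicle-only wells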
# Conditions: recombinant CYP2C19, luciferin-H EGE luminescence; at 5 µM; hits give high values; 0 = fully inhibited enzyme, 1 = untreated enzyme
row,SMILES,activation factor
1,Cc1ccc(OCC(=O)OC2CN3CCC2CC3)cc1 (stereo not given),inactive: 1.1
2,O=P1(Nc2ccc(Br)cn2)COc2ccccc2OC1,inactive: 0.1
3,O=P1(Nc2ncccn2)COc2ccccc2OC1,inactive: 1.1
4,Cc1nn(-c2ccccc2)c2c1P(=O)(N1CCOCC1)N(C)C(c1ccccc1)=N2 (stereo not given),inactive: 0.9
5,Clc1n[nH]nc1-c1nn[nH][15n]1,inactive: 1
6,O=P1(Nc2ccccn2)COc2ccccc2OC1,inactive: 0.4
7,Cc1cccc(OCC(=O)OC2CN3CCC2CC3)c1 (stereo not given),inactive: 0.9
8,O=[N+]([O-])c1ccc2c(c1)nnn2O,inactive: 1.1
9,CCOP1(=S)c2c(C)nn(CCC#N)c2N=C(c2ccc(F)cc2)N1C (stereo not given),inactive: 0.6
10,CCOP1(=S)c2c(C)nn(CCC#N)c2N=C(c2ccccc2F)N1C (stereo not given),inactive: 0.1
11,O=P(Nc1nccs1)(c1ccccc1)c1nc2ccccc2s1 (stereo not given),inactive: 0.4
12,CCN(CC)C(=S)SC(NC=O)C(Cl)(Cl)Cl (stereo not given),inactive: 0.5
13,O=C(OC1CN2CCC1CC2)C12CC3CC(CC(C3)C1)C2 (stereo not given),inactive: 1.1
14,O=C(COc1ccccc1)OC1CN2CCC1CC2 (stereo not given),inactive: 1
15,COP1(=S)c2c(C)nn(CCC#N)c2N=C(c2ccc(F)cc2)N1C (stereo not given),inactive: 0.6
16,CC1CCN(C(=O)Oc2c(Cl)cc(Cl)c3cccnc23)CC1,inactive: 0.9
17,O=[N+]([O-])c1cccc2n[nH]nc12,inactive: 1.1
18,CC(=O)N1C2C3N(C(C)=O)C1C1N(C(C)=O)C(C(N1C(C)=O)N3C(C)=O)N2C(C)=O,inactive: 0.5
19,CCc1nc2c(n1)c1c(non1O)c1c2no[n+]1[O-],inactive: 1
20,CC(C)CC(=O)NC(Sc1ccc(Cl)cc1)C(Cl)(Cl)Cl (stereo not given),inactive: 0.2
21,Oc1ccccc1CNc1ccccn1,inactive: 0.5
22,Cc1c2non([O-])c-2c(C)[n+](=O)[n+]1[O-],inactive: 1
23,CCOP(=O)(Nc1ccccc1)OCC,inactive: 0.9
24,COC(=O)c1cc2c(s1)N=C(c1ccccc1)N(C)P2(=O)N1CCOCC1 (stereo not given),inactive: 1
25,CCC(=O)N1C2C3N(C(=O)CC)C1C1N(C(=O)CC)C(C(N1C(=O)CC)N3C(=O)CC)N2C(=O)CC,inactive: 0.8
26,CCOC(=O)NC(Sc1ccccc1)C(Cl)(Cl)Cl (stereo not given),inactive: 0.3
27,O=P1(Nc2nc3ccc(Cl)cc3s2)COc2ccccc2O1 (stereo not given),inactive: 0.9
28,c1nnnn1CCn1cnnn1,inactive: 1
29,O=P(Nc1nccs1)(c1ccccc1)c1ccccc1,inactive: 1
30,O=C(OC1CN2CCC1CC2)c1cccc(Cl)c1 (stereo not given),inactive: 0.9
